Here are results for one substance from publication PMC4057808, “Molecular characterization of Clonorchis sinensis secretory myoglobin: Delineating its role in anti-oxidative survival” (Parasites & Vectors, 2014).

In this series the test system is CCn1c(=NN=c2sc3cc(S(=O)(=O)O)ccc3n2CC)sc2cc(S(=O)(=O)O)ccc21. The series can be described thus: purified protein. Conditions: H2O2 (0.2 mM in methods, ~20 μM in table note), 50 mM sodium phosphate pH 7.0, 20 °C, ABTS varied 20-300 mM as printed.

What is called Km is the substrate concentration at which the rate is half of its maximum. Take “rCsMb (CsMb, Clonorchis sinensis myoglobin) (Clonorchis sinensis)”: the Km is reported as 66 mM.
